The data set can be described thus: Stability following exposure to gamma radiation, RPLC purity (Example 30). Particulars: relative to the complexed APIs, with a corresponding reduction in potency. In kind it is physicochemical. From the text: The APIs were mixed with the complexable polymers at a ratio of 1:1, 1:4 or 1:10. The instantaneous precipitation was separated from reaction media (ammonium bicarbonate in water) and dried via lyophilization. The dried powder or the dried powder suspended in Benzyl Benzoate were loaded either in glass vial or plastic syringes (Intervene) and packed in aluminum pouches. These samples were exposed to gamma radiation (12.5 kGy-17.5 kGy) for more than 8 hrs at room temperature with radiation indicator sticker (Sterigenics, Corona, Calif.). These gamma irradiated samples were then analyzed for purity using reverse phase liquid chromatography (RPLC) in reference to non-gamma irradiated samples.

Insulin: the “stability after 15 kGy gamma irradiation, non-complexed API” value is “degraded faster”.

Source of the values: patent US10758623B2, “Pharmaceutically active agent complexes, polymer complexes, and compositions and methods involving the same” (Durect Corporation, priority 2013, dated 2020).
